Reference: patent publication US20050032873A1, “3-Amino chroman and 2-amino tetralin derivatives” (Wyeth, priority 2003, published 2005)

Sequences of proteins named here, by UniProt entry; tags and fusion partners are left off.
UniProt P08908, whole entry: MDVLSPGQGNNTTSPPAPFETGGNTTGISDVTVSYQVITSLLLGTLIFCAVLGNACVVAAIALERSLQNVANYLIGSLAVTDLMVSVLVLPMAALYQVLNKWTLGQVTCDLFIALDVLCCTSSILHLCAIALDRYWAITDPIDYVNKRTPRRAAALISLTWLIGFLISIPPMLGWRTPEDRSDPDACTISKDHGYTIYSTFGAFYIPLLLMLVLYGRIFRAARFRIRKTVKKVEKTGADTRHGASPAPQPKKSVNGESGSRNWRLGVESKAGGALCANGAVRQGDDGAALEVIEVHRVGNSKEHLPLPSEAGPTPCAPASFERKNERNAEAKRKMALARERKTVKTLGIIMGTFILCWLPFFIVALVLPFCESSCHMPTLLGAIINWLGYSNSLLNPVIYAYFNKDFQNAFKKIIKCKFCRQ

Assays:
[1] = molecular target: T1, 5-HT1A receptor (Homo sapiens, UniProt P08908); experiment: cAMP accumulation assay, 5-HT1A function; format: cell-based; details: for IC50: cells marked IC50 (antagonist)
[2] = molecular target: T2, cloned human 5-HT1A receptors (Homo sapiens, UniProt P08908); experiment: 35S-GTPγS binding assay, 5-HT1A function; format: biochemical; details: for EC50: agonist potency; for IC50: antagonist potency, reversal of 8-OH-DPAT
T2 construct: expressed in transfected cells

[3] = molecular target: T1, 5-HT1A receptor; experiment: 5-HT1A receptor affinity: displacement of [3H] 8-OH-DPAT; format: binding; design: expressed in transfected cells; details: CHO cells stably transfected with human 5-HT1A receptors

SMILES | EC50 ([1]; cells marked EC50 (agonist)) | EC50 [2] | IC50 [2] | Ki [3] | IC50 [1]
NC(=O)c1ccc(F)c2c1CC(N(CCCc1c[nH]c3ccc(F)cc13)CC1CC1)CO2 (single isomer, unassigned; (+)) [Compound 5b, (+)-3-{(cyclopropylmethyl)[3-(5-fluoro-1H-indol-3-yl)propyl]amino}-8-fluorochromane-5-carboxamide] | 16.3 nM | 35.6 nM | 31.9 nM |  | 
NC(=O)c1ccc(F)c2c1CC(N(CCCc1c[nH]c3ccc(F)cc13)CC1CC1)CO2 (single isomer, unassigned; (-)) [Compound 5a, (−)-3-{(cyclopropylmethyl)[3-(5-fluoro-1H-indol-3-yl)propyl]amino}-8-fluorochromane-5-carboxamide] |  |  | 44.1 nM | 2.04 nM | 70.1 nM
NC(=O)c1ccc(F)c2c1CC(N(CCCc1c[nH]c3ccc(F)cc13)CC1CC1)CO2 (stereo not shown) [Compound 5, 3-{(cyclopropylmethyl)[3-(5-fluoro-1H-indol-3-yl)propyl]amino}-8-fluorochromane-5-carboxamide] |  | 24.5 nM | 291 nM | 1.48 nM | 65.5 nM
